Laboratory results: patent publication US5098996A, “Process for introducing fluorine into biologically active materials” (The United States of America as represented by the …, priority 1988, dated 1992)

Sequences of proteins named here, by UniProt entry; tags and fusion partners are left off.
UniProt P25099, whole entry: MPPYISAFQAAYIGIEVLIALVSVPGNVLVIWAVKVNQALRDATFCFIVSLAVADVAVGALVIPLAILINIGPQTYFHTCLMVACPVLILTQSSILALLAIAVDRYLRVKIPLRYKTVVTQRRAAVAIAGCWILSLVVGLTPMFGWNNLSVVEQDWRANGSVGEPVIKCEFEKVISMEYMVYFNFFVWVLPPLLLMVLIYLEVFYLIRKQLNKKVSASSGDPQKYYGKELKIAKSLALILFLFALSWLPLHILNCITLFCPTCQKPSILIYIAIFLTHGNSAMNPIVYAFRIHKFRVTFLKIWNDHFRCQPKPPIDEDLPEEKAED

Target: A1 adenosine receptor (Rattus norvegicus, UniProt P25099)
Test: competitive binding assay, A1 adenosine receptor, rat brain membranes ([3H]-N6-phenylisopropyladenosine radiotracer)
Conditions: read-out: Ki-value in competitive binding assay

Row | Ki [nM] | SMILES
1 | 3 | O=C(Cc1ccc(NC(=O)Cc2ccc(Nc3ncnc4c3ncn4[C@@H]3O[C@H](CO)[C@@H](O)[C@H]3O)cc2)cc1)NCCNCCNC(=O)c1ccc(CF)cc1
2 | 10 | O=C(Cc1ccc(NC(=O)Cc2ccc(Nc3ncnc4c3ncn4[C@@H]3O[C@H](CO)[C@@H](O)[C@H]3O)cc2)cc1)NCCNC(=O)c1ccc(CF)cc1

Row | SMILES | Ki [nM]
3 | CCCn1c(=O)c2[nH]c(-c3ccc(OCC(=O)NCCNC(=O)c4ccc(CF)cc4)cc3)nc2n(CCC)c1=O | 12
